# CycPeptMPDB entries from one study

Values of Kelly et al. 2021, doi:10.1021/jacs.0c06115, as listed in CycPeptMPDB.

PAMPA measures passive passage through an artificial lipid membrane. Permeability is in 10^-6 cm/s, converted from the database's log10 values; higher is more permeable.

The entry for CC[C@@H]1NC(=O)[C@@H](CC2CCCCC2)NC(=O)[C@@H](NC(=O)[C@@H](CC(C)C)N(C)C(=O)[C@@H]2CCCN2C(C)=O)[C@@H](C)OC(=O)[C@@H]2CCCN2C(=O)[C@H](CC(C)C)NC(=O)[C@@H](C)N(C)C(=O)[C@@H](CC2CCCCC2)NC1=O lists PAMPA 0.98 × 10^-6 cm/s. CC(=O)N1CCC[C@H]1C(=O)N[C@@H]1C(=O)N(C)[C@H](CC(C)C)C(=O)N(C)[C@@H](CC(C)C)C(=O)N(C)[C@@H](CC(C)C)C(=O)N(C)[C@@H](CC(C)C)C(=O)N[C@H](C)C(=O)N[C@@H](CC(C)C)C(=O)N2CCC[C@@H]2C(=O)O[C@@H]1C is reported with PAMPA 9.8 × 10^-6 cm/s. CC[C@H]1NC(=O)[C@@H](NC(=O)[C@@H](CC(C)C)N(C)C(=O)[C@@H]2CCCN2C(C)=O)[C@@H](C)OC(=O)[C@@H]2CCCN2C(=O)[C@H](CC(C)C)NC(=O)[C@@H](C)N(C)C(=O)[C@@H](Cc2ccccc2)NC(=O)[C@H](Cc2ccc(OC)cc2)NC1=O has PAMPA 2.2 × 10^-6 cm/s. CC[C@@H]1NC(=O)[C@@H](CC2CCCCC2)NC(=O)[C@@H](NC(=O)[C@@H](CC(C)C)N(C)C(=O)[C@@H]2CCCN2C(C)=O)[C@@H](C)OC(=O)[C@@H]2CCCN2C(=O)[C@H](CC(C)C)NC(=O)[C@@H](C)N(C)C(=O)[C@@H](Cc2ccc(F)c(F)c2)NC1=O has PAMPA 3.9 × 10^-6 cm/s. CC(=O)N1CCC[C@H]1C(=O)N(C)[C@H](CC(C)C)C(=O)N[C@@H]1C(=O)N[C@H](Cc2ccc(F)c(F)c2)C(=O)N[C@@H](CCc2ccccc2)C(=O)N[C@H](Cc2ccccc2)C(=O)N(C)[C@H](C)C(=O)N[C@@H](CC(C)C)C(=O)N2CCC[C@H]2C(=O)O[C@@H]1C has PAMPA 0.59 × 10^-6 cm/s. For CC(=O)N1CCC[C@H]1C(=O)N(C)[C@H](CC(C)C)C(=O)N[C@@H]1C(=O)N[C@H](CC(C)C)C(=O)N[C@@H](Cc2ccccc2)C(=O)N[C@H](Cc2ccc(F)cc2)C(=O)N(C)[C@H](C)C(=O)N[C@@H](CC(C)C)C(=O)N2CCC[C@H]2C(=O)O[C@@H]1C the data give PAMPA 2.2 × 10^-6 cm/s.

CC(=O)N1CCC[C@H]1C(=O)N[C@@H]1C(=O)N(C)[C@H](CC(C)C)C(=O)N(C)[C@@H](CC(C)C)C(=O)N(C)[C@H](CC(C)C)C(=O)N[C@H](CC(C)C)C(=O)N[C@H](C)C(=O)N[C@@H](CC(C)C)C(=O)N2CCC[C@@H]2C(=O)O[C@@H]1C has PAMPA 3.1 × 10^-6 cm/s. CC(=O)N1CCC[C@H]1C(=O)N[C@@H]1C(=O)N(C)[C@H](CC(C)C)C(=O)N[C@H](CC(C)C)C(=O)N(C)[C@H](CC(C)C)C(=O)N(C)[C@@H](CC(C)C)C(=O)N[C@@H](C)C(=O)N[C@@H](CC(C)C)C(=O)N2CCC[C@@H]2C(=O)O[C@@H]1C is reported with PAMPA 3 × 10^-6 cm/s. CC(=O)N1CCC[C@H]1C(=O)N[C@@H]1C(=O)N(C)[C@H](CC(C)C)C(=O)N(C)[C@H](CC(C)C)C(=O)N[C@H](CC(C)C)C(=O)N(C)[C@H](CC(C)C)C(=O)N[C@H](C)C(=O)N[C@@H](CC(C)C)C(=O)N2CCC[C@@H]2C(=O)O[C@@H]1C has PAMPA 7.8 × 10^-6 cm/s. Listed for CC[C@@H]1NC(=O)[C@@H](Cc2ccccc2)NC(=O)[C@@H](NC(=O)[C@@H](CC(C)C)N(C)C(=O)[C@@H]2CCCN2C(C)=O)[C@@H](C)OC(=O)[C@@H]2CCCN2C(=O)[C@H](CC(C)C)NC(=O)[C@@H](C)N(C)C(=O)[C@@H](Cc2ccc(F)cc2)NC1=O: PAMPA 0.93 × 10^-6 cm/s. CC(=O)N1CCC[C@H]1C(=O)N(C)[C@H](CC(C)C)C(=O)N[C@@H]1C(=O)N[C@H](Cc2ccc(F)cc2)C(=O)N[C@@H](CC(C)C)C(=O)N[C@H](Cc2ccc(F)c(F)c2)C(=O)N(C)[C@H](C)C(=O)N[C@@H](CC(C)C)C(=O)N2CCC[C@H]2C(=O)O[C@@H]1C has PAMPA 2.6 × 10^-6 cm/s. CC(=O)N1CCC[C@H]1C(=O)N(C)[C@H](CC(C)C)C(=O)N[C@@H]1C(=O)N[C@H](CC(C)C)C(=O)N[C@@H](CC(C)C)C(=O)N[C@H](Cc2ccc(F)cc2)C(=O)N(C)[C@H](C)C(=O)N[C@@H](CC(C)C)C(=O)N2CCC[C@H]2C(=O)O[C@@H]1C is reported with PAMPA 2.9 × 10^-6 cm/s.

The entry for CCC[C@H]1NC(=O)[C@@H](NC(=O)[C@@H](CC(C)C)N(C)C(=O)[C@@H]2CCCN2C(C)=O)[C@@H](C)OC(=O)[C@@H]2CCCN2C(=O)[C@H](CC(C)C)NC(=O)[C@@H](C)N(C)C(=O)[C@@H](Cc2ccccc2)NC(=O)[C@H](Cc2ccc(OC)cc2)NC1=O lists PAMPA 1.7 × 10^-6 cm/s. For CC[C@H]1NC(=O)[C@H](Cc2ccccc2)NC(=O)[C@@H](CC2CCCCC2)NC(=O)[C@@H](NC(=O)[C@@H](CC(C)C)N(C)C(=O)[C@@H]2CCCN2C(C)=O)[C@@H](C)OC(=O)[C@@H]2CCCN2C(=O)[C@H](CC(C)C)NC(=O)[C@@H](C)N(C)C1=O the data give PAMPA 3.9 × 10^-6 cm/s.

The 2 highest values of PAMPA among the entries above:

| structure (SMILES) | PAMPA (10^-6 cm/s) |
|---|---|
| CC(=O)N1CCC[C@H]1C(=O)N[C@@H]1C(=O)N(C)[C@H](CC(C)C)C(=O)N(C)[C@@H](CC(C)C)C(=O)N(C)[C@@H](CC(C)C)C(=O)N(C)[C@@H](CC(C)C)C(=O)N[C@H](C)C(=O)N[C@@H](CC(C)C)C(=O)N2CCC[C@@H]2C(=O)O[C@@H]1C | 9.8 |
| CC(=O)N1CCC[C@H]1C(=O)N[C@@H]1C(=O)N(C)[C@H](CC(C)C)C(=O)N(C)[C@H](CC(C)C)C(=O)N[C@H](CC(C)C)C(=O)N(C)[C@H](CC(C)C)C(=O)N[C@H](C)C(=O)N[C@@H](CC(C)C)C(=O)N2CCC[C@@H]2C(=O)O[C@@H]1C | 7.8 |

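Lipid, pH, incubation time, direction and concentration are not recorded in the data file. Other peptides of the study may be missing here. Peptides that the database sets to -10, its floor, are left out.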